From patent US20250388576A1, “PYRIDONOPYRIMIDINE DERIVATIVE AS RSK INHIBITOR AND USE THEREOF” (EAST CHINA NORMAL UNIVERSITY, priority 2022, published 2025)

Protein sequences, listed by entry. Tags and fused reporters are not part of them.
UniProt Q9UK32, whole entry: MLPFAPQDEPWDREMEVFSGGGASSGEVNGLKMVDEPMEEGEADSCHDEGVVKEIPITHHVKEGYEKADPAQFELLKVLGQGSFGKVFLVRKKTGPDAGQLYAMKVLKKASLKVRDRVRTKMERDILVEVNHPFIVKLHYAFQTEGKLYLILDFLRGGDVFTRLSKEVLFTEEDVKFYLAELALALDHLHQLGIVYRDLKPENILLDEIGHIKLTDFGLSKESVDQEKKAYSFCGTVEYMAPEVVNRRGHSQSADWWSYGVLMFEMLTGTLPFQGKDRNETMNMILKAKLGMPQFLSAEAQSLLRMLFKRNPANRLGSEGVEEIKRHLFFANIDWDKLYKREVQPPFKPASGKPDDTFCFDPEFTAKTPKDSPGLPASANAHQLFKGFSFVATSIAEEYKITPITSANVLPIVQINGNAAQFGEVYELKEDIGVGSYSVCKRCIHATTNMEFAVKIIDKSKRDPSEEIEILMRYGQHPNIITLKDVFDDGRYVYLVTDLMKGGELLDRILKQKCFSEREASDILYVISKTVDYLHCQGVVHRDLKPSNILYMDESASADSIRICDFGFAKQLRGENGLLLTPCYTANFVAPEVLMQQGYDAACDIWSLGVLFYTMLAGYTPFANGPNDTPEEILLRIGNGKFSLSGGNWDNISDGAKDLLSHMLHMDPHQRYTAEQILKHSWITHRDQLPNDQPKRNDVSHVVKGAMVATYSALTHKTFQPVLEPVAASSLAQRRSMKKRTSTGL

Target: RSK4 kinase (Homo sapiens (Human), UniProt Q9UK32)
Test: In vitro enzyme activity assay (Kinase-Glo), RSK4
Type: biochemical
Conditions: 10 μM ATP, 30° C., 40 minutes

IC50 [nM] | Compound
11 ± 1 | Cc1cc(=O)n(C2CCC(F)(F)C2)c2nc(Nc3ccc4[nH]ncc4c3)ncc12 (single isomer, unassigned) [Compound 005-1]
6 ± 1 | Cc1cc(=O)n(C2CCC(F)(F)C2)c2nc(Nc3ccc4[nH]ncc4c3)ncc12 (single isomer, unassigned) [Compound 005-2]
